Data on 6 proteins can be found in publication PMC3190642 (Biochemistry, 2011).

Broadly, the Km is the concentration of substrate that gives half-maximal velocity. Usually kcat stands for the number of substrate molecules converted per active site and unit of time at saturation. One may read the kcat/Km as the turnover number divided by the Michaelis constant.

Substrate in data set [1]: CCCC(=O)C(=O)O
The experiment in a line: purified protein. The following applies: DCPIP as electron acceptor.

Substrate in data set [2]: O=C(O)CCC(=O)C(=O)O
The experiment in a line: purified protein. Conditions: DCPIP as electron acceptor.

B1: E1o (Escherichia coli K-12) (protein)
chain: MQNSALKAWLDSSYLSGANQSWIEQLYEDFLTDPDSVDANWRSTFQQLPGTGVKPDQFHSQTREYFRRLAKDASRYSSTISDPDTNVKQVKVLQLINAYRFRGHQHANLDPLGLWQQDKVADLDPSFHDLTEADFQETFNVGSFASGKETMKLGELLEALKQTYCGPIGAEYMHITSTEEKRWIQQRIESGRATFNSEEKKRFLSELTAAEGLERYLGAKFPGAKRFSLEGGDALIPMLKEMIRHAGNSGTREVVLGMAHRGRLNVLVNVLGKKPQDLFDEFAGKHKEHLGTGDVKYHMGFSSDFQTDGGLVHLALAFNPSHLEIVSPVVIGSVRARLDRLDEPSSNKVLPITIHGDAAVTGQGVVQETLNMSKARGYEVGGTVRIVINNQVGFTTSNPLDARSTPYCTDIGKMVQAPIFHVNADDPEAVAFVTRLALDFRNTFKRDVFIDLVCYRRHGHNEADEPSATQPLMYQKIKKHPTPRKIYADKLEQEKVATLEDATEMVNLYRDALDAGDCVVAEWRPMNMHSFTWSPYLNHEWDEEYPNKVEMKRLQELAKRISTVPEAVEMQSRVAKIYGDRQAMAAGEKLFDWGGAENLAYATLVDEGIPVRLSGEDSGRGTFFHRHAVIHNQSNGSTYTPLQHIHNGQGAFRVWDSVLSEEAVLAFEYGYATAEPRTLTIWEAQFGDFANGAQVVIDQFISSGEQKWGRMCGLVMLLPHGYEGQGPEHSSARLERYLQLCAEQNMQVCVPSTPAQVYHMLRRQALRGMRRPLVVMSPKSLLRHPLAVSSLEELANGTFLPAIGEIDELDPKGVKRVVMCSGKVYYDLLEQRRKNNQHDVAIVRIEQLYPFPHKAMQEVLQQFAHVKDFVWCQEEPLNQGAWYCSQHHFREVIPFGASLRYAGRPASASPAVGYMSVHQKQQQDLVNDALNVE
With B1, in the data set “purified protein [1]”, the Km is 16.3 ± 4.00 mM, the kcat came to 0.076 s⁻¹ and the specificity constant (kcat/Km) is 4.7 M⁻¹ s⁻¹. For the same protein, in “purified protein [2]”, the Km is 2.61 ± 0.376 × 10^-3 mM, the kcat is 2.15 s⁻¹ and the catalytic efficiency (kcat/Km) was found to be 824000 M⁻¹ s⁻¹.

B2: E1o (Escherichia coli K-12; H260E/H298N) (protein)
chain: MQNSALKAWLDSSYLSGANQSWIEQLYEDFLTDPDSVDANWRSTFQQLPGTGVKPDQFHSQTREYFRRLAKDASRYSSTISDPDTNVKQVKVLQLINAYRFRGHQHANLDPLGLWQQDKVADLDPSFHDLTEADFQETFNVGSFASGKETMKLGELLEALKQTYCGPIGAEYMHITSTEEKRWIQQRIESGRATFNSEEKKRFLSELTAAEGLERYLGAKFPGAKRFSLEGGDALIPMLKEMIRHAGNSGTREVVLGMAERGRLNVLVNVLGKKPQDLFDEFAGKHKEHLGTGDVKYNMGFSSDFQTDGGLVHLALAFNPSHLEIVSPVVIGSVRARLDRLDEPSSNKVLPITIHGDAAVTGQGVVQETLNMSKARGYEVGGTVRIVINNQVGFTTSNPLDARSTPYCTDIGKMVQAPIFHVNADDPEAVAFVTRLALDFRNTFKRDVFIDLVCYRRHGHNEADEPSATQPLMYQKIKKHPTPRKIYADKLEQEKVATLEDATEMVNLYRDALDAGDCVVAEWRPMNMHSFTWSPYLNHEWDEEYPNKVEMKRLQELAKRISTVPEAVEMQSRVAKIYGDRQAMAAGEKLFDWGGAENLAYATLVDEGIPVRLSGEDSGRGTFFHRHAVIHNQSNGSTYTPLQHIHNGQGAFRVWDSVLSEEAVLAFEYGYATAEPRTLTIWEAQFGDFANGAQVVIDQFISSGEQKWGRMCGLVMLLPHGYEGQGPEHSSARLERYLQLCAEQNMQVCVPSTPAQVYHMLRRQALRGMRRPLVVMSPKSLLRHPLAVSSLEELANGTFLPAIGEIDELDPKGVKRVVMCSGKVYYDLLEQRRKNNQHDVAIVRIEQLYPFPHKAMQEVLQQFAHVKDFVWCQEEPLNQGAWYCSQHHFREVIPFGASLRYAGRPASASPAVGYMSVHQKQQQDLVNDALNVE
Turning to B2, in the data set “purified protein [2]”, the Michaelis-Menten constant (Km) is reported as 2.73 ± 0.469 × 10^-3 mM, the kcat came to 0.134 s⁻¹ and the kcat/Km stood at 49100 M⁻¹ s⁻¹.

B3: E1o (Escherichia coli K-12; H298D) (protein)
chain: MQNSALKAWLDSSYLSGANQSWIEQLYEDFLTDPDSVDANWRSTFQQLPGTGVKPDQFHSQTREYFRRLAKDASRYSSTISDPDTNVKQVKVLQLINAYRFRGHQHANLDPLGLWQQDKVADLDPSFHDLTEADFQETFNVGSFASGKETMKLGELLEALKQTYCGPIGAEYMHITSTEEKRWIQQRIESGRATFNSEEKKRFLSELTAAEGLERYLGAKFPGAKRFSLEGGDALIPMLKEMIRHAGNSGTREVVLGMAHRGRLNVLVNVLGKKPQDLFDEFAGKHKEHLGTGDVKYDMGFSSDFQTDGGLVHLALAFNPSHLEIVSPVVIGSVRARLDRLDEPSSNKVLPITIHGDAAVTGQGVVQETLNMSKARGYEVGGTVRIVINNQVGFTTSNPLDARSTPYCTDIGKMVQAPIFHVNADDPEAVAFVTRLALDFRNTFKRDVFIDLVCYRRHGHNEADEPSATQPLMYQKIKKHPTPRKIYADKLEQEKVATLEDATEMVNLYRDALDAGDCVVAEWRPMNMHSFTWSPYLNHEWDEEYPNKVEMKRLQELAKRISTVPEAVEMQSRVAKIYGDRQAMAAGEKLFDWGGAENLAYATLVDEGIPVRLSGEDSGRGTFFHRHAVIHNQSNGSTYTPLQHIHNGQGAFRVWDSVLSEEAVLAFEYGYATAEPRTLTIWEAQFGDFANGAQVVIDQFISSGEQKWGRMCGLVMLLPHGYEGQGPEHSSARLERYLQLCAEQNMQVCVPSTPAQVYHMLRRQALRGMRRPLVVMSPKSLLRHPLAVSSLEELANGTFLPAIGEIDELDPKGVKRVVMCSGKVYYDLLEQRRKNNQHDVAIVRIEQLYPFPHKAMQEVLQQFAHVKDFVWCQEEPLNQGAWYCSQHHFREVIPFGASLRYAGRPASASPAVGYMSVHQKQQQDLVNDALNVE
B3: in the data set “purified protein [1]”, the Michaelis constant (Km) worked out at 7.02 ± 0.023 mM, the catalytic constant (kcat) worked out at 1.24 s⁻¹ and the catalytic efficiency (kcat/Km) turned out to be 180 M⁻¹ s⁻¹.

B4: E1o (Escherichia coli K-12; H298L) (protein)
chain: MQNSALKAWLDSSYLSGANQSWIEQLYEDFLTDPDSVDANWRSTFQQLPGTGVKPDQFHSQTREYFRRLAKDASRYSSTISDPDTNVKQVKVLQLINAYRFRGHQHANLDPLGLWQQDKVADLDPSFHDLTEADFQETFNVGSFASGKETMKLGELLEALKQTYCGPIGAEYMHITSTEEKRWIQQRIESGRATFNSEEKKRFLSELTAAEGLERYLGAKFPGAKRFSLEGGDALIPMLKEMIRHAGNSGTREVVLGMAHRGRLNVLVNVLGKKPQDLFDEFAGKHKEHLGTGDVKYLMGFSSDFQTDGGLVHLALAFNPSHLEIVSPVVIGSVRARLDRLDEPSSNKVLPITIHGDAAVTGQGVVQETLNMSKARGYEVGGTVRIVINNQVGFTTSNPLDARSTPYCTDIGKMVQAPIFHVNADDPEAVAFVTRLALDFRNTFKRDVFIDLVCYRRHGHNEADEPSATQPLMYQKIKKHPTPRKIYADKLEQEKVATLEDATEMVNLYRDALDAGDCVVAEWRPMNMHSFTWSPYLNHEWDEEYPNKVEMKRLQELAKRISTVPEAVEMQSRVAKIYGDRQAMAAGEKLFDWGGAENLAYATLVDEGIPVRLSGEDSGRGTFFHRHAVIHNQSNGSTYTPLQHIHNGQGAFRVWDSVLSEEAVLAFEYGYATAEPRTLTIWEAQFGDFANGAQVVIDQFISSGEQKWGRMCGLVMLLPHGYEGQGPEHSSARLERYLQLCAEQNMQVCVPSTPAQVYHMLRRQALRGMRRPLVVMSPKSLLRHPLAVSSLEELANGTFLPAIGEIDELDPKGVKRVVMCSGKVYYDLLEQRRKNNQHDVAIVRIEQLYPFPHKAMQEVLQQFAHVKDFVWCQEEPLNQGAWYCSQHHFREVIPFGASLRYAGRPASASPAVGYMSVHQKQQQDLVNDALNVE
On to B4, for which, in “purified protein [1]”, the Km stood at 6.30 ± 0.64 mM, the catalytic constant (kcat) stood at 0.094 s⁻¹ and the kcat/Km is 15 M⁻¹ s⁻¹. In addition, in the data set “purified protein [2]”, the Km is 3.41 ± 0.237 × 10^-3 mM, the catalytic constant (kcat) turned out to be 0.415 s⁻¹ and the catalytic efficiency (kcat/Km) stood at 122000 M⁻¹ s⁻¹.

B5: E1o (Escherichia coli K-12; H298T) (protein)
chain: MQNSALKAWLDSSYLSGANQSWIEQLYEDFLTDPDSVDANWRSTFQQLPGTGVKPDQFHSQTREYFRRLAKDASRYSSTISDPDTNVKQVKVLQLINAYRFRGHQHANLDPLGLWQQDKVADLDPSFHDLTEADFQETFNVGSFASGKETMKLGELLEALKQTYCGPIGAEYMHITSTEEKRWIQQRIESGRATFNSEEKKRFLSELTAAEGLERYLGAKFPGAKRFSLEGGDALIPMLKEMIRHAGNSGTREVVLGMAHRGRLNVLVNVLGKKPQDLFDEFAGKHKEHLGTGDVKYTMGFSSDFQTDGGLVHLALAFNPSHLEIVSPVVIGSVRARLDRLDEPSSNKVLPITIHGDAAVTGQGVVQETLNMSKARGYEVGGTVRIVINNQVGFTTSNPLDARSTPYCTDIGKMVQAPIFHVNADDPEAVAFVTRLALDFRNTFKRDVFIDLVCYRRHGHNEADEPSATQPLMYQKIKKHPTPRKIYADKLEQEKVATLEDATEMVNLYRDALDAGDCVVAEWRPMNMHSFTWSPYLNHEWDEEYPNKVEMKRLQELAKRISTVPEAVEMQSRVAKIYGDRQAMAAGEKLFDWGGAENLAYATLVDEGIPVRLSGEDSGRGTFFHRHAVIHNQSNGSTYTPLQHIHNGQGAFRVWDSVLSEEAVLAFEYGYATAEPRTLTIWEAQFGDFANGAQVVIDQFISSGEQKWGRMCGLVMLLPHGYEGQGPEHSSARLERYLQLCAEQNMQVCVPSTPAQVYHMLRRQALRGMRRPLVVMSPKSLLRHPLAVSSLEELANGTFLPAIGEIDELDPKGVKRVVMCSGKVYYDLLEQRRKNNQHDVAIVRIEQLYPFPHKAMQEVLQQFAHVKDFVWCQEEPLNQGAWYCSQHHFREVIPFGASLRYAGRPASASPAVGYMSVHQKQQQDLVNDALNVE
As for B5, in “purified protein [1]”, the Michaelis-Menten constant (Km) stood at 15.3 ± 1.00 mM, the catalytic constant (kcat) was determined as 0.03 s⁻¹ and the kcat/Km worked out at 2 M⁻¹ s⁻¹. In addition, in “purified protein [2]”, the Km is listed as 4.25 ± 0.160 × 10^-3 mM, the kcat was 0.0064 s⁻¹ and the kcat/Km is 1500 M⁻¹ s⁻¹.

B6: E1o (Escherichia coli K-12; H260E) (protein)
chain: MQNSALKAWLDSSYLSGANQSWIEQLYEDFLTDPDSVDANWRSTFQQLPGTGVKPDQFHSQTREYFRRLAKDASRYSSTISDPDTNVKQVKVLQLINAYRFRGHQHANLDPLGLWQQDKVADLDPSFHDLTEADFQETFNVGSFASGKETMKLGELLEALKQTYCGPIGAEYMHITSTEEKRWIQQRIESGRATFNSEEKKRFLSELTAAEGLERYLGAKFPGAKRFSLEGGDALIPMLKEMIRHAGNSGTREVVLGMAERGRLNVLVNVLGKKPQDLFDEFAGKHKEHLGTGDVKYHMGFSSDFQTDGGLVHLALAFNPSHLEIVSPVVIGSVRARLDRLDEPSSNKVLPITIHGDAAVTGQGVVQETLNMSKARGYEVGGTVRIVINNQVGFTTSNPLDARSTPYCTDIGKMVQAPIFHVNADDPEAVAFVTRLALDFRNTFKRDVFIDLVCYRRHGHNEADEPSATQPLMYQKIKKHPTPRKIYADKLEQEKVATLEDATEMVNLYRDALDAGDCVVAEWRPMNMHSFTWSPYLNHEWDEEYPNKVEMKRLQELAKRISTVPEAVEMQSRVAKIYGDRQAMAAGEKLFDWGGAENLAYATLVDEGIPVRLSGEDSGRGTFFHRHAVIHNQSNGSTYTPLQHIHNGQGAFRVWDSVLSEEAVLAFEYGYATAEPRTLTIWEAQFGDFANGAQVVIDQFISSGEQKWGRMCGLVMLLPHGYEGQGPEHSSARLERYLQLCAEQNMQVCVPSTPAQVYHMLRRQALRGMRRPLVVMSPKSLLRHPLAVSSLEELANGTFLPAIGEIDELDPKGVKRVVMCSGKVYYDLLEQRRKNNQHDVAIVRIEQLYPFPHKAMQEVLQQFAHVKDFVWCQEEPLNQGAWYCSQHHFREVIPFGASLRYAGRPASASPAVGYMSVHQKQQQDLVNDALNVE
Take B6: the Michaelis-Menten constant (Km) in “purified protein [2]” was 383 ± 35.5 × 10^-3 mM.
